Membrane permeability of cyclic peptides

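The data file gives no further conditions (lipid, pH, time, direction or concentration), and values from different papers need not be comparable. Other peptides of the study may be missing here. Peptides that the database sets to -10, its floor, are left out.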

PAMPA is the parallel artificial membrane permeability assay, which has no cells and reads passive diffusion. Values are log10 P with P in cm/s, so -5 is more permeable than -7.

For CC(C)C[C@@H]1C(=O)N2CCC[C@H]2C(=O)N(Cc2ccccc2)CC(=O)N[C@@H](Cc2ccccc2)C(=O)N2CCC[C@@H]2C(=O)N(C)[C@@H](C)C(=O)N[C@H](CC(C)C)C(=O)N1C the data give PAMPA -5.68 (log10 cm/s).
For CC(C)C[C@@H]1C(=O)N(Cc2ccccc2)CC(=O)N2CCC[C@H]2C(=O)N[C@H](CC(C)C)C(=O)N[C@@H](Cc2ccccc2)C(=O)N2CCC[C@H]2C(=O)N(C)[C@H](C)C(=O)N1C the data give PAMPA -7.21 (log10 cm/s).
For CC(C)C[C@@H]1NC(=O)[C@@H](CC(C)C)NC(=O)[C@H](C)N(C)C(=O)[C@H](Cc2ccccc2)NC(=O)[C@@H](CC(C)C)N(C)C(=O)[C@H]2CCCN2C1=O the data give PAMPA -5.06 (log10 cm/s).
For CC(C)C[C@@H]1NC(=O)[C@@H](CC(C)C)NC(=O)[C@H](C)NC(=O)[C@@H]2CCCN2C(=O)[C@H](Cc2ccccc2)NC(=O)[C@@H](CC(C)C)NC(=O)[C@@H]2CCCN2C1=O the data give PAMPA -6.18 (log10 cm/s).
For CC(C)C[C@@H]1NC(=O)[C@@H](C)N(C)C(=O)[C@H]2CCCN2C(=O)[C@H](Cc2ccccc2)NC(=O)[C@H](CC(C)C)N(C)C(=O)[C@H]2CCCN2C(=O)C[C@H](Cc2ccccc2)NC1=O the data give PAMPA -5.58 (log10 cm/s).
For CCCN1CC(=O)N(C)[C@H](CC(C)C)C(=O)N[C@H](CC(C)C)C(=O)N2CCC[C@@H]2C(=O)N(Cc2ccccc2)CC(=O)N[C@@H](Cc2ccccc2)C(=O)N2CCC[C@H]2C1=O the data give PAMPA -5.21 (log10 cm/s).
For CC(C)C[C@@H]1NC(=O)[C@H](C)N(C)C(=O)[C@H]2CCCN2C(=O)[C@H](Cc2ccccc2)NC(=O)[C@@H](CC(C)C)NC(=O)[C@@H]2CCCN2C(=O)[C@@H](CC(C)C)N(C)C1=O the data give PAMPA -5.35 (log10 cm/s).
For CCCN1CC(=O)N(C)[C@H](CC(C)C)C(=O)N(C)[C@@H](CC(C)C)C(=O)N2CCC[C@@H]2C(=O)N[C@@H](CC(C)C)C(=O)N[C@@H](Cc2ccccc2)C(=O)N2CCC[C@H]2C1=O the data give PAMPA -5.34 (log10 cm/s).
For CC(C)C[C@H]1NC(=O)[C@@H]2CCCN2C(=O)C[C@H](Cc2ccccc2)NC(=O)CN(Cc2ccccc2)C(=O)C[C@H](Cc2ccccc2)NC(=O)[C@H]2CCCN2C(=O)[C@H](Cc2ccccc2)NC1=O the data give PAMPA -5.92 (log10 cm/s).
For CC(C)C[C@@H]1NC(=O)[C@H](C)NC(=O)[C@@H]2CCCN2C(=O)[C@H](Cc2ccccc2)NC(=O)CN(Cc2ccccc2)C(=O)[C@H]2CCCN2C(=O)[C@H](CC(C)C)N(C)C1=O the data give PAMPA -6.57 (log10 cm/s).
For CC(C)C[C@H]1C(=O)N[C@@H](Cc2ccccc2)C(=O)N[C@H](C)C(=O)N(C)[C@@H](CC(C)C)C(=O)N(Cc2ccccc2)CC(=O)N2CCC[C@@H]2C(=O)N1C the data give PAMPA -5.34 (log10 cm/s).
For CCCN1CC(=O)N[C@@H](CC(C)C)C(=O)N(Cc2ccccc2)CC(=O)N2CCC[C@@H]2C(=O)N[C@H](CC(C)C)C(=O)N[C@@H](Cc2ccccc2)C(=O)N2CCC[C@H]2C1=O the data give PAMPA -6.65 (log10 cm/s).
For CC(C)C[C@H]1NC(=O)[C@H](C)N(C)C(=O)[C@@H]2CCCN2C(=O)[C@H](Cc2ccccc2)NC(=O)CN(Cc2ccccc2)C(=O)[C@@H]2CCCN2C(=O)C[C@H](Cc2ccccc2)NC1=O the data give PAMPA -6.17 (log10 cm/s).
For CC(C)C[C@H]1NC(=O)CN(Cc2ccccc2)C(=O)C[C@H](Cc2ccccc2)NC(=O)[C@@H]2CCCN2C(=O)[C@H](Cc2ccccc2)NC(=O)[C@H](CC(C)C)N(C)C(=O)[C@H]2CCCN2C1=O the data give PAMPA -5.60 (log10 cm/s).
For CC(C)C[C@@H]1NC(=O)[C@H]2CCCN2C(=O)CN(Cc2ccccc2)C(=O)[C@H](CC(C)C)NC(=O)[C@H](C)NC(=O)[C@@H]2CCCN2C(=O)[C@H](Cc2ccccc2)NC1=O the data give PAMPA -6.41 (log10 cm/s).

Extract of 2 entries:

{"smiles": "CC(C)C[C@@H]1NC(=O)[C@@H](CC(C)C)NC(=O)[C@H](C)NC(=O)[C@@H]2CCCN2C(=O)[C@H](Cc2ccccc2)NC(=O)[C@@H](CC(C)C)NC(=O)[C@@H]2CCCN2C1=O", "PAMPA (log10 cm/s)": "-6.18"}
{"smiles": "CC(C)C[C@@H]1C(=O)N(Cc2ccccc2)CC(=O)N2CCC[C@H]2C(=O)N[C@H](CC(C)C)C(=O)N[C@@H](Cc2ccccc2)C(=O)N2CCC[C@H]2C(=O)N(C)[C@H](C)C(=O)N1C", "PAMPA (log10 cm/s)": "-7.21"}

Values of Townsend et al. 2020, doi:10.26434/chemrxiv.13335941.v1, as listed in CycPeptMPDB.